pIC50: −log10 of the molar value.
Legend:
[1] = target: ATP-binding cassette sub-family C member 2 (Homo sapiens, UniProt Q92887)
[2] = target: ATP-binding cassette sub-family C member 4 (Homo sapiens, UniProt O15439)
[3] = target: ATP-binding cassette sub-family C member 3 (Homo sapiens, UniProt O15438)
[4] = target: Bile salt export pump (Homo sapiens, UniProt O95342)

By UniProt entry, the sequences of proteins in these tests, tags left out. Where a name states a change or a piece, a line headed by the entry shows the natural chain unless it says otherwise.
UniProt Q92887: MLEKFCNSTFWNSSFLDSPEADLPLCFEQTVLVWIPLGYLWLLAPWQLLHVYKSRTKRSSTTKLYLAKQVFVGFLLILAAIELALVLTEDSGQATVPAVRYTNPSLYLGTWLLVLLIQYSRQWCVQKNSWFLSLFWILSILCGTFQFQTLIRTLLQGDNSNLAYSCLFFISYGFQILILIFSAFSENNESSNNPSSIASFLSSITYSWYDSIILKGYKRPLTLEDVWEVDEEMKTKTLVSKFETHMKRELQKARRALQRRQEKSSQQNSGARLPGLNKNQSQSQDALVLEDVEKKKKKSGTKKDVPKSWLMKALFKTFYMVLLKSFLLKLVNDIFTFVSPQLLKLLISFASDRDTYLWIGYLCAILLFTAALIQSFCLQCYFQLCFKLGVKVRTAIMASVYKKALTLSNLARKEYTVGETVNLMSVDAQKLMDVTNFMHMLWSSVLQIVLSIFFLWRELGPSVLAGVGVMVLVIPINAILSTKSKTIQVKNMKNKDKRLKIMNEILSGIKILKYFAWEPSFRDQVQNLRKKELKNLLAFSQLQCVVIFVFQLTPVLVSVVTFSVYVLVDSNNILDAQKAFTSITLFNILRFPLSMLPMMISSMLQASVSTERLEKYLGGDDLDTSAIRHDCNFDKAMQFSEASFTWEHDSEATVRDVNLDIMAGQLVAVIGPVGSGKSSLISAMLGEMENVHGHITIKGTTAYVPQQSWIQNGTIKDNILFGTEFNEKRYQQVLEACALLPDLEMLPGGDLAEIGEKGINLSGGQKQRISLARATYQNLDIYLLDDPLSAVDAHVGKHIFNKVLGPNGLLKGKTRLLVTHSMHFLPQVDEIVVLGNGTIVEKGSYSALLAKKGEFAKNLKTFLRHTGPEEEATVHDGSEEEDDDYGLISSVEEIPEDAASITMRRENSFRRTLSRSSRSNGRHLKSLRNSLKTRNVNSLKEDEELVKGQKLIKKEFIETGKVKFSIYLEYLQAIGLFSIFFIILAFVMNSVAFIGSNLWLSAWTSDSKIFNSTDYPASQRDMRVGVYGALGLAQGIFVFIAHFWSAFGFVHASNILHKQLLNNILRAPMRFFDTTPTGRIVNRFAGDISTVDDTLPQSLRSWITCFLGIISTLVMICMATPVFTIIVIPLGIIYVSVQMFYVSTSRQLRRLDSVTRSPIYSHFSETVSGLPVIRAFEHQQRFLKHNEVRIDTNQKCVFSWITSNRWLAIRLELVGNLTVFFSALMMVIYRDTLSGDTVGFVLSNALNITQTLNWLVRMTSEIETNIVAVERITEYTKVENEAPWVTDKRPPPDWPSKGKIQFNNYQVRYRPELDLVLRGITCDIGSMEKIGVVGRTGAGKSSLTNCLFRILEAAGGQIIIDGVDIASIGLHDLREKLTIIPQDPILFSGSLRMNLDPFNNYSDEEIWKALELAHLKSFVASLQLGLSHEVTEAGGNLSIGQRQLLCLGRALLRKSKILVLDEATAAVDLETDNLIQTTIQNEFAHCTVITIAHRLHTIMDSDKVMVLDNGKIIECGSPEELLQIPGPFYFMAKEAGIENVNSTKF
UniProt O15439: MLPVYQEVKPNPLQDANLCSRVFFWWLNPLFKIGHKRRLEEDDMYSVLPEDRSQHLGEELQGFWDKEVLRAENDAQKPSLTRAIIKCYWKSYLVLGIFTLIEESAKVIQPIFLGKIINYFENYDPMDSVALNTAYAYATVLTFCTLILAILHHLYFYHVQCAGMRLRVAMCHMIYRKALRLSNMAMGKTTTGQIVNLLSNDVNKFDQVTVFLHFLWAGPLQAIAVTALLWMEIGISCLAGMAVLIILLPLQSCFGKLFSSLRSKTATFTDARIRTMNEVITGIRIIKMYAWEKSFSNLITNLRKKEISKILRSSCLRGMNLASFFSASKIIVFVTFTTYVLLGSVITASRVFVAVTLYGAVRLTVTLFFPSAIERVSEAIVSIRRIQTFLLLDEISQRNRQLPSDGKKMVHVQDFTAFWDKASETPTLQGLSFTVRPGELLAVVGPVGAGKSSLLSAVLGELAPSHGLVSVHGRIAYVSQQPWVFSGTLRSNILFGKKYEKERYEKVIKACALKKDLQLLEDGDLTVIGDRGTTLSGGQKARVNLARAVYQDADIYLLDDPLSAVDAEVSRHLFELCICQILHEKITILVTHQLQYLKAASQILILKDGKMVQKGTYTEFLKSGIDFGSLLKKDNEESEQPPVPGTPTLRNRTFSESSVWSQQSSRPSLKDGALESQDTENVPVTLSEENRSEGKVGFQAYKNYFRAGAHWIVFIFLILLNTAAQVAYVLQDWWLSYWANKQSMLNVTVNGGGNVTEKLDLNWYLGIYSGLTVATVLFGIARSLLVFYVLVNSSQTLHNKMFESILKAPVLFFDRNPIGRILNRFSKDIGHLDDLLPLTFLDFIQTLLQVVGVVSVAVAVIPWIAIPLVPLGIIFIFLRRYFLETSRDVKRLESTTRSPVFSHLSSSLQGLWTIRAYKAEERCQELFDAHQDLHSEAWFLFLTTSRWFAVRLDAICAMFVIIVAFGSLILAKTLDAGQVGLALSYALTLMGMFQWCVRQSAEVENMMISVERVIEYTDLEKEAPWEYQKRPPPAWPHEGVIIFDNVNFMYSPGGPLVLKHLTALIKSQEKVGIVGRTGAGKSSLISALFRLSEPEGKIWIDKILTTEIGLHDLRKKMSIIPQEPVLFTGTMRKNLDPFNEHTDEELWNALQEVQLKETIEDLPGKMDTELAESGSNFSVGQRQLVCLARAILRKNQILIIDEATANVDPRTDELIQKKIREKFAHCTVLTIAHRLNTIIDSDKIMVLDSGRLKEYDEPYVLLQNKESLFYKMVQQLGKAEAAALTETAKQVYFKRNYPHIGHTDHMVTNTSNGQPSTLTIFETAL
UniProt O15438: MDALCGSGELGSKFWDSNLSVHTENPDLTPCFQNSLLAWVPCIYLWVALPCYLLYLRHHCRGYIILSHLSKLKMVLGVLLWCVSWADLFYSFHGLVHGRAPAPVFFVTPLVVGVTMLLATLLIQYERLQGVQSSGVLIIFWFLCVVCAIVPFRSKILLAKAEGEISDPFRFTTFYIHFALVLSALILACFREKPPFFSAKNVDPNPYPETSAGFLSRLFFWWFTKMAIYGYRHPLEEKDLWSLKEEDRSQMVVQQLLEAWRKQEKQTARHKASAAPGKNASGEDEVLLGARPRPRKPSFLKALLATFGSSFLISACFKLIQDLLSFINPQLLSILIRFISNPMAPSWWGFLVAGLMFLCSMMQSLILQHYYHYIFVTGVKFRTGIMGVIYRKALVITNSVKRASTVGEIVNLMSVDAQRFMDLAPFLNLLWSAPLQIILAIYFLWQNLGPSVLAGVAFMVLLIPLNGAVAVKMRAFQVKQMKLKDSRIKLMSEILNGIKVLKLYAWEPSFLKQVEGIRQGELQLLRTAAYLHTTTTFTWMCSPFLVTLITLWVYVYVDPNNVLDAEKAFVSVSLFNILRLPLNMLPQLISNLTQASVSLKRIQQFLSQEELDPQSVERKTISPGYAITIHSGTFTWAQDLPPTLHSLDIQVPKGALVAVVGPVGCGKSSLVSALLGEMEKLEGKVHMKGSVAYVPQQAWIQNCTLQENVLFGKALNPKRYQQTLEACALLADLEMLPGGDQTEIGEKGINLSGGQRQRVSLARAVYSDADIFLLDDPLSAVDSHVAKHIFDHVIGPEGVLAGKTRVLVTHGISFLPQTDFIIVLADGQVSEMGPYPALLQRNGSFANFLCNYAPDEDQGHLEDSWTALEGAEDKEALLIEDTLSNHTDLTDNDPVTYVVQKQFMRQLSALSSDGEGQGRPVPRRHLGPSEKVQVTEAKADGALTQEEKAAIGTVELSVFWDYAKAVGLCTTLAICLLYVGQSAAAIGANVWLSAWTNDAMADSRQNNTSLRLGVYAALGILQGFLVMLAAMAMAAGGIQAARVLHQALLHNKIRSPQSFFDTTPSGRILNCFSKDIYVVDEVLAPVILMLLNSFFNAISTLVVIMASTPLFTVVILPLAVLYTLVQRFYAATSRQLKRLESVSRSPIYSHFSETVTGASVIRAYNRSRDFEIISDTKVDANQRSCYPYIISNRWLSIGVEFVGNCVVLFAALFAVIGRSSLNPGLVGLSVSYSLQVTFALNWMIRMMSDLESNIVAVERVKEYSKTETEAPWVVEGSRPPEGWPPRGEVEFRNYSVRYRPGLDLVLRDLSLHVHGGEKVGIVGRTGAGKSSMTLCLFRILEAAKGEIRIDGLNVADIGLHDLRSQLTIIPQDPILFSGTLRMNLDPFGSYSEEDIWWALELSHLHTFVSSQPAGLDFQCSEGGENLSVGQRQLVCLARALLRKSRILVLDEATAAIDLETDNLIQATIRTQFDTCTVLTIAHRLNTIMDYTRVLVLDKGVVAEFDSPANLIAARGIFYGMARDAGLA
UniProt O95342, whole entry: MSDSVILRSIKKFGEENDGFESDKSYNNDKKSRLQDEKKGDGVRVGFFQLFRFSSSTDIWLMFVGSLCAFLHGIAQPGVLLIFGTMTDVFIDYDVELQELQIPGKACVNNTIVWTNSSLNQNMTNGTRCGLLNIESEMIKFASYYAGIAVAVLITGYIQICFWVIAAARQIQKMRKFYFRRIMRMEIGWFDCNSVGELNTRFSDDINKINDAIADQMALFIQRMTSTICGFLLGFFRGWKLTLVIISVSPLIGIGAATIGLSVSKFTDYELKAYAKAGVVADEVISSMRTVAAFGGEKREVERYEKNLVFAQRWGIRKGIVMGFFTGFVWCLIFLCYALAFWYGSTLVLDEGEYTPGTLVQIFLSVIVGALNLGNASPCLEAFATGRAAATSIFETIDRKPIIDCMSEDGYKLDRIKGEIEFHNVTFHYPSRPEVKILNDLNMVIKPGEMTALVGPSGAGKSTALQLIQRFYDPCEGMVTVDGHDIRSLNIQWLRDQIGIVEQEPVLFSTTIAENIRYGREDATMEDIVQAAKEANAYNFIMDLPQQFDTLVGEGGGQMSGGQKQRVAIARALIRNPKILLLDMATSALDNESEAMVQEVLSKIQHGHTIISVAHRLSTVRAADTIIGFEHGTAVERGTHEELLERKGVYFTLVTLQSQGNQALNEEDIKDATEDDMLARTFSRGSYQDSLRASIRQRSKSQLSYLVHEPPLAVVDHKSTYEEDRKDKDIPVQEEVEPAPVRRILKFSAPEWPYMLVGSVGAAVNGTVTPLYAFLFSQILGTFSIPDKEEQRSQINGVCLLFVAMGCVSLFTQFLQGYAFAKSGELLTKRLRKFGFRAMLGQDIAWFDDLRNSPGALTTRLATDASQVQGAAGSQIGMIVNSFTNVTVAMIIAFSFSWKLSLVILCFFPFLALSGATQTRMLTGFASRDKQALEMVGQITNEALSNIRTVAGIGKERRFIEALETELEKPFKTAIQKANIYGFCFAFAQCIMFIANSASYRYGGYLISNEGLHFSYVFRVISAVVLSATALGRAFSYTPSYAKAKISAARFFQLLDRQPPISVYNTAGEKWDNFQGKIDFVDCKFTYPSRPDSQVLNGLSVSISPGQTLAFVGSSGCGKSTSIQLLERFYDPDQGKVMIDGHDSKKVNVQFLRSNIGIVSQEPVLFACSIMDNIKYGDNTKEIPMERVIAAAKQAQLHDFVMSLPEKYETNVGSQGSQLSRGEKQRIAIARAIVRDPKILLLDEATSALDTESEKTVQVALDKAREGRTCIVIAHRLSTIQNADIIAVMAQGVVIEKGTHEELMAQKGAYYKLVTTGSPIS

pIC50 [1]	pIC50 [2]	pIC50 [3]	pIC50 [4]	Structure (SMILES)
< 3.88				CC(C)c1c(C(=O)Nc2ccccc2)c(-c2ccccc2)c(-c2ccc(F)cc2)n1CC[C@@H](O)C[C@@H](O)CC(=O)O [calcium bis{(3R,5R)-7-[3-(anilinocarbonyl)-5-(4-fluorophenyl)-2-isopropyl-4-phenyl-1H-pyrrol-1-yl]-3,5-dihydroxyheptanoate}]
< 3.88	< 3.88	< 3.88	< 3.88	Cc1cnc(C(=O)NCCc2ccc(S(=O)(=O)NC(=O)NC3CCCCC3)cc2)cn1 [Glucotrol xl]

Source: BindingDB's records for doi:10.1093/toxsci/kft176 (Amgen, 2013)
